Values quoted from earlier work in publication PMC8868332, “Creating Robust Antimicrobial Materials with Sticky Tyrocidines” (Antibiotics, 2022).

Conditions: general character summarised in Table 2; no reference given; cited from earlier work
Excerpt: Table 2 Summary of the compounds used to compare with the Trc in creating robust non-covalent antimicrobial materials. | column: Character

Substance	Haemolytic character (Character)	Solubility (Character)
Magainin 2	non-haemolytic	water-soluble
PGLa	haemolytic	water-soluble
gramicidin S [GS]	haemolytic	water-soluble
